The text below walks through data of patent publication US5252463A, “Clipsin, a chymotrypsin-like protease and method of using same” (The Du Pont Merck Pharmaceutical Company, priority 1990, dated 1993).

Molecules are shown by their SMILES.

For this assay, the target named is T1, rat brain clipsin (Rattus norvegicus, UniProt P09650).
T1 sequence (P09650 21-260): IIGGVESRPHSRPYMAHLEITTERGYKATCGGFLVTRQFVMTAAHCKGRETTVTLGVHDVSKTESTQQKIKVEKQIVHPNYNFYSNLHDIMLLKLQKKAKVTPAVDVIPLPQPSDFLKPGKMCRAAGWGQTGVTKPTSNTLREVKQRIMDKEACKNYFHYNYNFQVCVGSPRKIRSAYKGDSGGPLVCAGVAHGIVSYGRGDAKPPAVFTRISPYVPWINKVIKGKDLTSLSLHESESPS

For `N=C(N)NCCC[C@H](NC(=O)c1ccccc1)C(=O)Nc1ccc([N+](=O)[O-])cc1` [Bz-Arg-p-nitroanilide], the “Hydrolysis of the substrate by clipsin (in words)” value is listed as “detectable hydrolysis only with the last substrate”.
